In publication PMC12557383, “Development of a Potent and Functional In Vivo Peptide Competitive Inhibitor for the Toxin MazF” (Journal of Medicinal Chemistry, 2025):

What was measured:
[1] = target: T1, His^6-MazF (wild-type E. coli toxin MazF) (E. coli, UniProt P0AE70 1-111); test: cell-based or functional assay
T1 sequence: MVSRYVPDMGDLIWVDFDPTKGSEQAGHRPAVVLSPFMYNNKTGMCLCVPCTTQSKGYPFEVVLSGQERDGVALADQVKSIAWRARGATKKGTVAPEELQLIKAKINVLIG

[2] = target: T2, MazF_(E24A) (E. coli toxin MazF with glutamic acid 24 replaced with alanine, His6 tag removed) (E. coli, UniProt P0AE70 1-111, E24A); test: ITC; MazE (50 μM) in the syringe, 20 injections of 8 μL into 10 μM MazF_(E24A) in the cell; 50 mM NaHPO4 pH 7, 100 mM NaCl, 0.5 mM EDTA, 4 mM DTT; one set of sites model; details: both partners purified
T2 construct: For NMR the same construct was 15N or 15N/13C labelled; also called the toxin; source: E. coli BL21 (DE3) RIL, purified (Ni-NTA, TEV cleavage, second Ni-NTA, SEC); not shown: His6, N-terminal, cleaved
T2 sequence: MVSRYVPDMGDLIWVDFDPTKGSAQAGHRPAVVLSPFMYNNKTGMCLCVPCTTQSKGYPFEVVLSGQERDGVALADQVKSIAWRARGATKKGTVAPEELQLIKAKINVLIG

B1: MazE (E. coli antitoxin) (natural protein, UniProt P0AE72 1-82, looked up)
chain: MIHSSVKRWGNSPAVRIPATLMQALNLNIDDEVKIDLVDGKLIIEPVRKEPVFTLAELVNDITPENLHENIDWGEPKDKEVW
notes: also called full-length MazE; the antitoxin
- IC50 of inhibition of His6-MazF (0.75 μM) cleavage of a fluorescence-suppressed DNA–RNA chimeric substrate (0.5 μM) [1]: 330 nM
- Kd [2]: 3.9 ± 0.7 nM
